Reference: US20240358847A1, “TROP2 BINDERS AND CONJUGATES THEREOF” (MERCK SHARP & DOHME LLC, priority 2023, published 2024)

Experiment: Rat PK of αTROP2 MMAE ADC (tAb, cAb, released MMAE)
Type: in vivo
Details: male Wistar Hannover rats, 5 mg/kg IV

B1: ADC 1: αTROP2 (HC:BSM-YTE-S375C) (LC:BSM-Y53D) conjugated to MP-AA-PABC-MMAE (conjugate)
heavy: QVQLLQSGSELKKPGASVKVSCKASGYTFTNYGMNWVRQAPGQGLKWMGWINTYTGEPTYTDDFKGRFSFSLDTSVSQAYLQISSLKAEDTAVYYCARGGFGSSYWYFDVWGQGTLVTVSSASTKGPSVFPLAPSSKSTSGGTAALGCLVKDYFPEPVTVSWNSGALTSGVHTFPAVLQSSGLYSLSSVVTVPSSSLGTQTYICNVNHKPSNTKVDKKVEPKSCDKTHTCPPCPAPELLGGPSVFLFPPKPKDTLYITREPEVTCVVVDVSHEDPEVKFNWYVDGVEVHNAKTKPREEQYNSTYRVVSVLTVLHQDWLNGKEYKCKVSNKALPAPIEKTISKAKGQPREPQVYTLPPSRDELTKNQVSLTCLVKGFYPCDIAVEWESNGQPENNYKTTPPVLDSDGSFFLYSKLTVDKSRWQQGNVFSCSVMHEALHNHYTQKSLSLSPGK
light: DIQLTQSPSSLSASVGDRVTITCKASQDVSIAVAWYQQKPGKAPKLLIYSASDRYTGVPSRFSGSGSGTDFTLTISSLQPEDFATYYCQQHYITPLTFGPGTKVEIKRTVAAPSVFIFPPSDEQLKSGTASVVCLLNNFYPREAKVQWKVDNALQSGNSQESVTEQDSKDSTYSLSSTLTLSKADYEKHKVYACEVTHQGLSSPVTKSFNRGEC
- terminal half-life: 238 h
